Laboratory results as given in ChEMBL document CHEMBL4725277, “Synthetic and therapeutic perspectives of nitrogen containing heterocycles as anti-convulsants” (Bioorg Med Chem, 2020).

Experiment: Neurotoxicity in ip and po injected mouse
Type: toxicity, organism-based
Conditions: in vivo

For CCC1(c2ccccc2)C(=O)NC(=O)NC1=O [PHENOBARBITAL], the TD50 was 65.5 mg/kg.
